Assay results published in patent publication US20090172831A1, “Methods for the production of plants resistant to HPPD herbicides” (Syngenta Limited, priority 2000, published 2009).

How the values were obtained:
Arabidopsis HPPD = biological target: T1, Arabidopsis HPPD (Arabidopsis thaliana, UniProt P93836); test: Rate of binding (kon) by radiolabelled inhibitor and separation of bound from free
T1 construct: made in house; host or cells: E. coli BL21 (DE3) codon+ RP
T1 sequence (P93836 1-445): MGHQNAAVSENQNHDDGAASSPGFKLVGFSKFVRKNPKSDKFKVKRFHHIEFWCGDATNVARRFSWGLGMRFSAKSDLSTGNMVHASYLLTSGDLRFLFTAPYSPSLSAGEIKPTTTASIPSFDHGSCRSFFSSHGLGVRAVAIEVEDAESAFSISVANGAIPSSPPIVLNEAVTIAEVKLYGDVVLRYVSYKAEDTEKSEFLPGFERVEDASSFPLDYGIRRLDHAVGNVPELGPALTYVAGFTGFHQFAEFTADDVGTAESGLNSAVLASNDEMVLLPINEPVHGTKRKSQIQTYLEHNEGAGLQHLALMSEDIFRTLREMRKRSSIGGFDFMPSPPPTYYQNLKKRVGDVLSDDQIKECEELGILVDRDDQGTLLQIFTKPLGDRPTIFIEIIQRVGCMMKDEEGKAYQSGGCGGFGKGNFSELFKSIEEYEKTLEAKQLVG
Text: Alternatively estimates of kon values can be determined more directly by mixing HPPD with radio or otherwise labelled herbicide inhibitor and monitoring the progress of the binding reaction, optionally by rapidly isolating the enzyme inhibitor complex and/or by any one of a number of methods (for example fluorimetry, EPR, NMR, radiodetection etc). For example, the reaction with HPPD may be started by addition of radiolabelled herbicide, allowed to proceed for a series of different times and rapidly quenched by addition and mixing with a large excess of unlabelled inhibitor. In this case the extent of binding at different times may, for example, be monitored by using ultrafiltration, binding to filters or gel filtration to separate radiolabel-bound to HPPD from unbound label which fractions can then each be quantitated by scintillation counting.
When measuring kon via such measurements of physical binding it is important to note that the binding of most compounds versus some HPPD enzymes appears biphasic with half the sites binding quickly and then the remaining binding then occurring relatively very slowly. In such cases, it is the rapid initial binding phase, usually corresponding to rate constants in the range 0.1-4×10^5 M^−1s^−1, which provides the relevant rate constant. This corresponds to the value obtained from using enzyme assay-based methods since although only half the sites are initially bound, on the same time-scale essentially all of the HPPD catalytic activity is inhibited. It will be appreciated that within the scope of the current invention many more or less rigorous methods of making the desired kinetic comparisons, are possible which may not involve explicit determination of off rates and on rates but, based upon the same underlying principles, achieve the same selection result.
The measurements of koff are based on physical rather than assay-based measurements. Similarly, kon rates can also be measured by a direct physical method, in this case the use of radiolabelled inhibitor and physical separation of protein bound from free inhibitor. […] The rates of binding determined on the basis of measurement of the amount of radiolabelled inhibitor bound after various times of reaction are found to correlate very well with measurements based upon assay-based measurements of the rate of decline of enzyme activity.
An illustrative example of an experiment to measure the on rate of mesotrione binding to Arabidopsis HPPD follows. […] After stopping samples are quickly separated into protein-bound and protein-free fractions by rapid Gel filtration down a NAP5 Pharmacia column equilibrated in 50 mM BTP at pH 7 containing 0.1 M KCl and the radioactivity in the two fractions measured by liquid scintillation counting. […]

[1] = system: untransformed tobacco plants variety Samsun; test: Glasshouse spray test, visible damage; type: in vivo; details: spray 0.0 to 2000 g/ha, assessed ~1 and 3 weeks after treatment
Description: (§1) Plants are 1) untransformed tobacco plants variety Samsun expressing the endogenous tobacco (control) HPPD gene, 2) tobacco plants transformed to express Pseudomonas HPPD according to the examples herein and 3) tobacco plants transformed to express Wheat HPPD also according to the examples herein.
(§2) Large numbers of plants are grown from seed in small pots in the glasshouse to the 5-7 leaf seedling stage and sprayed with a range of doses, suitably from 0.0 to 2000 g/ha, of different HPPD-inhibitor herbicides selected from compounds of Formula 1, 2, 3 and 4. Treatments are suitably Formulated in, for example, deionised water+0.5% Turbocharge™ surfactant or, alternatively, 50% acetone/water and applied at […] to a dozen or more replicates of each line and at each spray rate (where the plants were T1 plants (selfed progeny of primary transformants) and still segregating at normally 1:2:1) or, where, homozygous, 3-6 plants. The extent of visible damage in terms of bleaching of meristems and leaves, eventual necrosis and stunting of growth relative to unsprayed controls is assessed at ˜1 and 3 weeks after treatment. Data from susceptible segregants are excluded from the analysis. In summary, results obtained are as follows.

[2] = system: tobacco plants transformed to express wheat HPPD; test: Glasshouse spray test, visible damage; type: in vivo
Description: as §1, §2

[3] = system: tobacco plants transformed with Avena sativa 4-HPPD gene; test: Tolerance of tobacco transformed with Avena sativa HPPD to herbicides; details: in vivo
Text: The structure of the resulting vector is shown schematically in FIG. 4.
The 4-HPPD plant expression cassette is then ligated in to the binary vector pBin19 restricted with Hind III and EcoRI and transformed into E. coli TOP10 cells (Invitrogen). This binary vector is then transformed into tobacco using methods well known in the art and, for example, as described elsewhere herein.

| SMILES | kon (Arabidopsis HPPD; absence of glycerol) | kon (Arabidopsis HPPD; in the presence of glycerol) | kon (Arabidopsis HPPD; pH 7, 25 C, pH 7.0, in the presence of glycerol, initial rapid phase) | kon (Arabidopsis HPPD; without 25% v/v glycerol) | fold more susceptible of the herbicide than of mesotrione [1] | fold less susceptible of mesotrione than of the named herbicide [2] | resistance of the transgenic plants compared with that to mesotrione [3] |
| --- | --- | --- | --- | --- | --- | --- | --- |
| CS(=O)(=O)c1ccc(C(=O)C2C(=O)CCCC2=O)c([N+](=O)[O-])c1 [Structure I, 2-(Nitro-4-methanesulphonylbenzoyl)-cyclohexane-1,3-dione] | 190000 M⁻¹ s⁻¹ | 110000 M⁻¹ s⁻¹ | 125000 M⁻¹ s⁻¹ | 1.9e+06 M⁻¹ s⁻¹ | – | – | – |
| Cc1cc(C#N)ccc1C(=O)C1C(=O)C(C)(C)C(=O)C(C)(C)C1=O [Structure VI, 2-[2-methyl-4-cyanobenzoyl]-4,4,6,6-tetramethylcyclohexane-1,3,5-trione] | – | – | – | – | < 4 fold | > 16 fold | substantially less resistant |
